Only some compounds are listed: those with a hit (about 16% of all), similar ones and a draw of the others.
DT40 TDP1 no CPT: qHTS for Inhibitors of human tyrosyl-DNA phosphodiesterase 1 (TDP1): qHTS in cells in absence of CPT; Potency, µM (highest dose often 46.2 µM), most hits filed as inhibitors; AID 686978, 2013; DT40 Tdp1-/- hTDP1 cells, no CPT, ATP luminescence, 48 h; actives 15% (n = 420,000); further: nearly all actives have a fitted effect of over 55% in size
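No-CPT arm: Tdp1-/-;hTDP1 DT40 cells (400/well) plus compounds, incubated ≥48 hr at 37 °C. Readout CellTiter-Glo luminescence.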
uPA generation: blocks generation of uPA at the cell surface; cell surface uPA generation assay, qHTS; Potency, µM (top dose mostly 38.3 µM), usual class: inhibitors; actives 0.31% (n = 330,000); active means well fitted inhibition curve with a large enough effect; inconclusive means small, poorly fitted or top-dose-only effect; inactive means no such curve, though single readings can be large or run the other way; tested in mouse RAW 264.7 cells; further: nearly all actives have a fitted effect of over 55% in size
TDP1 block: blocks human tyrosyl-DNA phosphodiesterase 1. Q9NUW8. recombinant TDP1, AlphaScreen DNA substrate cleavage. Potency, µM (series often up to 130 µM), actives largely listed as inhibitors. actives 0.28% (n = 350,000). AID 485290; further: nearly all actives have a fitted effect of over 40% in size
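Tdp1 1 nM final; 15 min RT w/ cpd; substrate 15 nM, 5 min; beads 10 ug/ml, 10 min; AlphaScreen read. Neg ctrl: no enzyme.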
miR-21 reporter: raises the signal of a miR-21 reporter | HeLa miR-21 FLuc reporter, luciferase, 48 h | Potency, µM (highest dose often 38.3 µM) | 340,000 tested, under 10 active | AID 2288; active = well fitted rising curve with a large enough effect; inconclusive = small, poorly fitted or top-dose-only effect; inactive = no such curve, though single readings can be large or run the other way;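 note: miR-21 action dims this reporter so a rising signal means less miR-21 action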
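HeLa cells stably expressing CMV-driven firefly luciferase with a downstream miR-21 binding sequence, endogenously expressing miR-21, were treated with titrations (up to about 40uM final) for 48 hours at 37 degree Celsius. Luciferase luminescence was read after lysis.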
DT40 TDP1 CPT: growth inhibition of DT40 Tdp1-/-;hTDP1 cells with camptothecin (screen for TDP1 inhibitors) | AID 686979 | actives 12% (n = 420,000) | chicken DT40 Tdp1-/-;hTDP1 cells + 20 nM CPT, ATP luminescence, 48 h | Potency, µM (series often up to 46.2 µM), usual class: inhibitors; further: nearly all actives have a fitted effect of over 55% in size
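Chicken DT40 Tdp1-/- cells complemented with human TDP1, 400 cells/well, exposed to compounds plus 20 nM camptothecin for at least 48 h at 37 C; viability read as ATP content by CellTiter-Glo luminescence.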
Hits are given with their value; i = inactive; ? = inconclusive; nt = no result given. Unless noted, the call rests on the fitted dose curve; in most records, active means well fitted curve in the direction sought with a large enough effect; inconclusive means small, poorly fitted or top-dose-only effect, or another doubt; inactive means no such curve, though single readings can be large; an effect the other way counts as inactive or inconclusive.

SMILES | DT40 TDP1 no CPT | uPA generation | TDP1 block | miR-21 reporter | DT40 TDP1 CPT
C#CCn1c(COc2ccccc2C)nc2ccccc21 | ? | nt | i | i | i
COc1ccccc1NC(=O)COc1ccc(C(=O)NCc2ccccc2)cc1OC | ? | i | i | nt | ?
O=C(NC1CCCc2ccccc21)c1n[nH]c(=O)c2ccccc12 (centres undefined) | 6.5µM | i | i | i | ?
O=C(Nc1ccc(F)cc1)NC1CCCc2ccccc21 (centres undefined) | i | i | i | i | i
COc1ccccc1NC(=O)COc1ccc(C(=O)NC2CCCc3ccccc32)cc1OC (centres undefined) | 7.3µM | i | nt | i | ?
O=C(NC1CCCc2ccccc21)c1ccccc1 (centres undefined) | ? | i | i | i | i
O=C(Nc1ccccc1)NC1CCCc2ccccc21 (centres undefined) | 18µM | i | i | i | ?
CCc1c(C(=O)NC2CCCc3ccccc32)[nH]c(C)c1C(C)=O (centres undefined) | 15µM | i | i | i | ?
COc1ccccc1CCn1cc(C#N)c(=O)[nH]c1=O | i | i | i | i | i
COc1cccc(C(=O)NCCS(=O)(=O)NCc2cccnc2)c1 | i | i | nt | nt | i
Cc1cccc(C)c1Nc1ncccc1C(=O)O | i | nt | nt | nt | i
COc1ccccc1N1CCN(C(CNS(=O)(=O)c2ccc(C)cc2)c2cccnc2)CC1 (centres undefined) | 7.3µM | i | i | i | ?
COc1ccc(CNC(=O)C(=O)NCC(c2cccnc2)N2CCN(c3ccccc3F)CC2)cc1 (centres undefined) | 18µM | nt | i | i | 12µM
COc1ccccc1N1CCN(C(CNC(=O)C(=O)NCc2ccc(F)cc2)c2cccnc2)CC1 (centres undefined) | 5.8µM | nt | i | ? | 8.2µM
O=C1NC(=S)NC(=O)C1Nc1ccc(Cl)cc1 | 7.3µM | i | nt | nt | ?
O=C(c1cc2ccccc2oc1=O)N(Cc1ccco1)Cc1cccs1 | ? | nt | i | i | 21µM
O=C(c1cc2ccccc2oc1=O)N(Cc1cccs1)Cc1cccs1 | 23µM | i | i | i | ?
CN(C)CCN(Cc1ccccc1)C(=O)c1[nH]c(C(F)(F)F)nc1-c1ccccc1 | ? | nt | nt | nt | i
Cc1ccc2cc(C#N)c(N3CCCN(S(=O)(=O)c4ccccc4)CC3)nc2c1 | 26µM | i | i | i | ?
Cc1ccc2cc(C#N)c(N3CCCN(S(=O)(=O)c4ccc(F)cc4)CC3)nc2c1 | 15µM | i | nt | i | ?
Cc1ccc2nc(N3CCN(S(=O)(=O)c4ccc(C)c(Cl)c4)CC3)c(C#N)cc2c1 | 21µM | nt | i | i | 21µM
CC1(O)C(=O)C=C2C=C(c3ccsc3)OC=C2C1=O (centres undefined) | nt | nt | i | nt | nt
CC(=O)Nc1ccc(N(C(=O)c2cnccn2)C(C(=O)NC2CCCCC2)c2ccc(F)cc2)cc1 (centres undefined) | i | i | i | i | i
COc1ccc(CN(CCC(c2ccc(F)cc2)C2CCOC(C)(C)C2)C(=O)c2ccco2)cc1 (centres undefined) | 16µM | i | i | ? | 21µM
CC(c1ccccc1)N(CCC(c1ccccc1)C1CCOC(C)(C)C1)C(=O)c1ccco1 (centres undefined) | 18µM | i | i | i | ?
SMILES | DT40 TDP1 no CPT | uPA generation | TDP1 block | miR-21 reporter | DT40 TDP1 CPT
CC(=O)c1ccccc1N(C(=O)Cn1nnc2ccccc21)C(C(=O)NCC1CCCO1)c1ccc(N2CCOCC2)cc1 (centres undefined) | i | i | i | i | i
[O-][n+]1c2ccccc2c2n1CCN1CCOC21c1ccc(Cl)cc1 (centres undefined) | 7.3µM | ? | i | nt | 2.1µM
O=c1[nH]c2c(c3c1CCCC3)CCCC2 | i | i | i | i | 21µM
O=c1[nH]c2c(c(=O)[nH]1)CCCCCC2 | i | i | nt | nt | i
CN(C(=O)c1coc(=O)c2ccccc12)c1ccc(Br)cc1 | i | i | i | i | i
O=C1/C(=C/c2ccc(N3CCCC3)cc2)NC(=S)N1C1CC1 | 16µM | i | i | i | 16µM
Cc1cc(N2CCCC2)ccc1/C=C1\NC(=S)N(C)C1=O | 3.3µM | i | i | i | 4.6µM
CN1C(=O)c2ccc(N3CCCC3)cc2C1=O | ? | nt | i | i | ?
O=C(OCC#CCSc1nnc(-c2cccc3ccccc23)o1)c1csc2ccccc12 | nt | nt | i | nt | nt
COc1ccc(NC(=O)CCCSc2nc(-c3ccco3)cc(C(F)(F)F)n2)cc1OC | ? | i | i | i | ?
CC(C)(C)CC(C)(C)N=C1Nc2cc(Cl)c(Cl)cc2N[C@]12C[C@H]1CCCC(=O)N3CC[C@@H](C2)[C@@H]13 | 11µM | nt | nt | nt | ?
NC(=O)[C@H]1CC2(CC(c3cccc(NC(=O)CC(c4ccccc4)c4ccccc4)c3)=NO2)CN1C(=O)c1ccccc1C(=O)c1ccccc1 (some centres undefined) | ? | i | i | ? | 13µM
NC(=O)[C@H]1CC2(CC(c3cccc(NC(=O)CC(c4ccccc4)c4ccccc4)c3)=NO2)CN1C(=O)C(c1ccccc1)c1ccccc1 (some centres undefined) | ? | i | i | ? | 18µM
CCOC(=O)N1CCN(CCC(=O)c2ccc(Br)cc2)CC1 | 7.3µM | i | nt | i | 2.9µM
CCOC(=O)N1CCN(CCC(=O)c2ccc(Cl)cc2)CC1 | 3.3µM | i | i | i | 2.3µM
COc1c(C(=O)NNC(=O)c2ccccc2Cl)csc1Br | i | i | i | i | i
CCn1c(SCc2nc(-c3ccccc3)no2)nnc1-c1cccs1 | i | i | i | i | ?
CCOC(=O)C(C)Sc1nnc(-c2c[nH]c3ccccc23)n1C (centres undefined) | ? | i | i | i | ?
CCn1c(SCC(=O)Nc2ccc(OC)c(OC)c2)nnc1-c1cccs1 | i | i | i | i | i
CCn1c(SCc2nc(-c3cccs3)no2)nnc1-c1c[nH]c2ccccc12 | 23µM | i | i | i | ?
COCCn1c(SCC(=O)c2c[nH]c3ccccc23)nnc1-c1ccncc1 | i | i | i | i | i
CCn1c(SCC(=O)Nc2cc(OC)c(OC)c(OC)c2)nnc1-c1cccs1 | 21µM | i | i | i | ?
CCn1c(SC(C)C(=O)OC)nnc1-c1c[nH]c2ccccc12 (centres undefined) | 23µM | i | i | i | ?
CCn1c(SCC(=O)c2c[nH]c3ccccc23)nnc1-c1cccs1 | 5.8µM | i | i | i | ?
COc1ccc2cnn(CCOc3ccccc3)c(=O)c2c1OC | ? | i | i | i | ?
Cc1ccc(C(=O)Nc2cccc(C(=O)N3CCN(C)CC3)c2)cc1 | i | nt | i | i | i
CCOc1nc(SCCOc2ccccc2)nc(N(C)C)n1 | i | i | nt | i | i

Screens: PubChem, National Center for Advancing Translational Sciences (NCATS)
